Results from patent US5643873A, “Peptides and compounds that bind selectins including endothelial leukocyte adhesion molecule 1” (Affymax Technologies N.V., priority 1994, dated 1997).

Target: T1, E-selectin (Homo sapiens, UniProt P16581)
T1 sequence (P16581 22-554): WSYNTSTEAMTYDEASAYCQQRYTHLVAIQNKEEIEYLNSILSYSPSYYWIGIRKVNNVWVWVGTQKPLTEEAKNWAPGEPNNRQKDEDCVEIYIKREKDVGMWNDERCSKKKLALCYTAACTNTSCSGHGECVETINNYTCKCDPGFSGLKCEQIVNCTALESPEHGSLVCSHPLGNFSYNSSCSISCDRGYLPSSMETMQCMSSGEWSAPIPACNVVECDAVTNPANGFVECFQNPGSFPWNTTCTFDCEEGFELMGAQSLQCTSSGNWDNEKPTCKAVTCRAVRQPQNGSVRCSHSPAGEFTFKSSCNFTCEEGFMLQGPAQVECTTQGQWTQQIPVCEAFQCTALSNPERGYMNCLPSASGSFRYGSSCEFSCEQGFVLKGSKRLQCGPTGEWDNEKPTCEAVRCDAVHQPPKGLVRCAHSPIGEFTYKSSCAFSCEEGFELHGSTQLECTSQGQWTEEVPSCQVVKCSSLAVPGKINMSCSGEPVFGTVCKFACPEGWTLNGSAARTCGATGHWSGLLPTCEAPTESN
Experiment: HL60 cell adhesion assay (labeled HL60 cells adhering to immobilized E-selectin)
Format: cell-based
Design: truncated form comprising the complete extracellular domain (amino acids 1 through 554); made in house
Protocol: By comparing test wells with control wells (no receptor), one can determine whether a peptide binds to E-selectin specifically. Peptides found to bind specifically to E-selectin were then synthesized as the free peptide (no phage) and tested in an HL60 cell adhesion competition assay. The competition assay was carried out similarly to the ELISA, except that labeled HL60 cells were added in addition to the peptide [the control wells were typically of at least two types: (1) no immobilized E-selectin; and (2) no peptide; see Example 1]. In this regard, HL60 cells are known to contain surface glycoconjugates which bind to E-selectin.
Peptides that block the binding of labeled HL60 cells to E-selectin are then evaluated to determine their IC50 -HL60 in the manner also specified in Example 1. […]
After the test compound incubation period, 100 μL of labeled HL60 cells were added to each well, and the microtiter plate was incubated at 4° C. for 30 minutes. […] After this incubation, aliquots were removed from each well and placed in scintillation vials; scintillation fluid was added to each vial; and the radioactivity in each aliquot was quantitated by liquid scintillation counting. […]
The concentration of any peptide or peptide mimetic required to reduce by 50% the binding of HL60 cells to E-selectin as per the assay of Example 1 is determined by the following procedure. […]

blocking of cell adhesion (in words) (500 to 1000 μM, FIG. 2B): does block cell adhesion
blocking of HL60 binding / cell adhesion (in words) (about 200 μM, FIG. 1): did not exhibit significant blocking
Substance: monofucosyl monosialyllactose [SLe^x, reference compound]
